The source of these data is patent US8337858B2, “Extracts of Aphanizomenon Flos Aquae and nutritional, cosmetic and pharmaceutical compositions containing the same” (Nutratec S.R.L., priority 2006, dated 2012).

For the test, the system named is RBC (red blood cells or erythrocytes) oxidized by AAPH. Kind of test: MDA formation in RBC (erythrocytes) oxidized by AAPH. As to conditions: RBC incubated at 37° C. with AAPH (FIG. 9A panel A); read-out: IC50, lipid peroxidation (MDA) in RBC. The test is classed as cell-based, human.

One may read the IC50 as the concentration that inhibits the measured activity by half. Turning to phycocyanobilin [PCB], the IC50 was roughly 160 nM.
